This note sets out measurements from patent US12636270B2, “Levothyroxine liquid formulations” (Fresenius Kabi USA, LLC, priority 2016, dated 2026).

For series [1] the following is noted: 4 W, 20 mcg/mL, tromethamine 10 mg/mL, 5.4 mg/mL sodium chloride in water. As to the method:
(§1) Separate samples containing 20 mcg/mL levothyroxine sodium, 10 mg/mL tromethamine, 5.4 mg/mL sodium chloride, and sodium iodide at a concentration of 280 mcg/mL, 140 mcg/mL, or 6 mcg/mL in water were adjusted to various pH levels. 5 mL of each sample was filled into 10 cc flint molded vials, and the vials were stoppered with 20 mm stoppers under nitrogen.
The HPLC conditions were as follows: • Column: ACE Excel 3 C18-PFP, 4.6×150 mm HPLC column • Mobile Phase A: Sodium heptanesulfonate/Acetonitrile/Water/Methanol/H3PO4 (4.0 g/800 mL/1600 mL/1600 mL/4.0 mL) • Mobile Phase B: Sodium heptanesulfonate/Acetonitrile/Water/Methanol/H3PO4 (4.0 g/2000 mL/200 mL/1800 mL/4.0 mL) • Diluent: 0.01 N NaOH • Column temperature: 25° C. • Flow rate: 1.5 mL/min • Injection volume: 80 μL • Autosampler temperature: 5° C. • Detection: UV at 225 nm • Separation mode: Gradient Gradient Program: […]

For series [2] the following is noted: 20 mcg/mL, tromethamine 10 mg/mL, normal saline. As to the method:
Separate samples containing levothyroxine sodium at a concentration of 20 mcg/mL, tromethamine at a concentration of 10 mg/mL in normal saline (0.9% NaCl in water) were adjusted to various pH levels. One sample additionally contained hydroxypropyl (HP) β-cyclodextrin at a concentration of 10 mg/mL. 5 mL of each sample was filled into 10 cc amber tubing vials, and the vials were stoppered with 20 mm stoppers under nitrogen. The samples were stored at temperatures of 25° C., 40° C. and 55° C. The samples stored at 55° C. were analyzed by HPLC at 1 and 4 weeks (W) of storage. The samples stored at 40° C. were analyzed by HPLC at 4 W and 3 months (M) of storage. The samples stored at 25° C. were analyzed by HPLC at 3M of storage.
The HPLC conditions were as follows: • Column: Waters […]™ C8 (5 μm, 4.6×150 mm) HPLC column • Mobile Phase A: Sodium heptanesulfonate/Acetonitrile/Water/Methanol/H3PO4 (4.023 g/800 mL/1600 mL/1600 mL/4 mL) • Mobile Phase B: Sodium heptanesulfonate/Acetonitrile/Water/Methanol/H3PO4 (2.013 g/1000 mL/100 mL/900 mL/2 mL) • Diluent: 0.01 N NaOH • Column temperature: 25° C. • Flow rate: 1.5 mL/min • Injection volume: 40-200 μL • Autosampler temperature: 5° C. • Detection: UV at 225 nm • Separation mode: Gradient Gradient Program: […]
The results for liothyronine, largest unknown impurity, and total impurities as determined by peak area percent are set forth in Table 1.

The conditions of series [3]: 25° C., 20 mcg/mL, tromethamine 10 mg/mL, 5.4 mg/mL sodium chloride in water. As to the method:
as §1
The samples also were stored at temperatures of 25° C. or 40° C. for 2M or 4M prior to analysis by HPLC.
The HPLC conditions were as follows: • Column: Phenomenex Kinetex 2.6 μm C18, 4.6×150 mm HPLC column • Mobile Phase A: 0.05 M Sulfamic Acid, pH 2.0 • Mobile Phase B: Acetonitrile • Diluent: 10% Mobile Phase A in Methanol: Acetonitrile: Mobile Phase A (1000 mL: 300 mL: 700 mL) • Column temperature: 27° C. • Flow rate: 1.2 mL/min • Injection volume: 50 μL • Autosampler temperature: 25° C. • Detection: UV at 225 nm • Separation mode: Gradient Gradient Program: […]

Where two headings read alike, the source gives them in different places.

On to `N[C@@H](Cc1cc(I)c(Oc2cc(I)c(O)c(I)c2)c(I)c1)C(=O)[O-].[Na+]` [Levothyroxine Na, 4-(4-hydroxy-3,5-diiodophenoxy)-3,5-diiodo-L-phenylalanine sodium], for which the “% Liothyronine” value amounted to 0.25% in series [1] (25° C., NaI 6 mcg/mL, pH 10.5); 0.28% in series [1] (25° C., NaI 140 mcg/mL, pH 9.5); 0.27% in series [1] (25° C., NaI 140 mcg/mL, pH 10); 0.26% in series [1] (25° C., NaI 140 mcg/mL, pH 10.5); 0.28% in series [1] (25° C., NaI 280 mcg/mL, pH 9.5); 0.26% in series [1] (25° C., NaI 280 mcg/mL, pH 10). The “% Liothyronine” value in series [1] (25° C., NaI 280 mcg/mL, pH 10.5) came out at 0.26%; in series [1] (55° C., NaI 6 mcg/mL, pH 10.5), 0.87%; in series [1] (55° C., NaI 140 mcg/mL, pH 9.5), 1.74%; in series [1] (55° C., NaI 140 mcg/mL, pH 10) it was 1.06%; in series [1] (55° C., NaI 140 mcg/mL, pH 10.5), 0.74%; in series [1] (55° C., NaI 280 mcg/mL, pH 10), 1.06%. The “% Liothyronine” value in series [1] (55° C., NaI 280 mcg/mL, pH 10.5) amounted to 0.71%; in series [2] (40° C., 3 M, pH 9.5), 1.56%; in series [2] (40° C., 3 M, pH 10), 0.87%; in series [2] (55° C., 4 W, pH 9.5), 1.7%; in series [3] (2 M, NaI 6 mcg/mL, pH 10.5) it was 0.26%; in series [3] (2 M, NaI 140 mcg/mL, pH 10), 0.25%. Also, the “% Liothyronine” value came to 0.28% in series [3] (2 M, NaI 280 mcg/mL, pH 9.5); 0.25% in series [3] (4 M, NaI 6 mcg/mL, pH 10.5); 0.28% in series [3] (4 M, NaI 140 mcg/mL, pH 10); 0.26% in series [3] (4 M, NaI 140 mcg/mL, pH 10.5); 0.28% in series [3] (4 M, NaI 280 mcg/mL, pH 10); 0.25% in series [3] (4 M, NaI 280 mcg/mL, pH 10.5).
